From ChEMBL document CHEMBL1144736, “Novel inhibitors of 17beta-hydroxysteroid dehydrogenase type 1: templates for design” (Bioorg Med Chem, 2008)

Biological target: T1, 17-beta-hydroxysteroid dehydrogenase type 1 (Homo sapiens) (UniProt P14061)
T1 sequence (whole entry): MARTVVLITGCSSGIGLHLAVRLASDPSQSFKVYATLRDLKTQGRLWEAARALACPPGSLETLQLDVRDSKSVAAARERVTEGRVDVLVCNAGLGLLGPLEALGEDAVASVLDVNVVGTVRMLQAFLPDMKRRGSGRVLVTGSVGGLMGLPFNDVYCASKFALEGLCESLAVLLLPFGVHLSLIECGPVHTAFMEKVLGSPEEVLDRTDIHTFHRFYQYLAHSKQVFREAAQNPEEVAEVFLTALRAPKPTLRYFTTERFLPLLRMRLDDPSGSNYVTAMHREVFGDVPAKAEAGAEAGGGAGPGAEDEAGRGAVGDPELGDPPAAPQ
Assay: Inhibition of 17beta-HSD1 expressed in intact human T47D cells at 10 uM after 30 mins
Type: cell-based

## CC(=O)c1ccc(-c2ccc(O)cc2C)cc1
  inhibition: 89%
